From paper PMC10305119, “Analogs of 6-Bromohypaphorine with Increased Agonist Potency for α7 Nicotinic Receptor as Anti-Inflammatory Analgesic Agents” (Marine Drugs, 2023)

Amino acid sequences for entries named in this document (tags omitted). Residues count along the entry.
UniProt P36544, 23-502 limits assumed: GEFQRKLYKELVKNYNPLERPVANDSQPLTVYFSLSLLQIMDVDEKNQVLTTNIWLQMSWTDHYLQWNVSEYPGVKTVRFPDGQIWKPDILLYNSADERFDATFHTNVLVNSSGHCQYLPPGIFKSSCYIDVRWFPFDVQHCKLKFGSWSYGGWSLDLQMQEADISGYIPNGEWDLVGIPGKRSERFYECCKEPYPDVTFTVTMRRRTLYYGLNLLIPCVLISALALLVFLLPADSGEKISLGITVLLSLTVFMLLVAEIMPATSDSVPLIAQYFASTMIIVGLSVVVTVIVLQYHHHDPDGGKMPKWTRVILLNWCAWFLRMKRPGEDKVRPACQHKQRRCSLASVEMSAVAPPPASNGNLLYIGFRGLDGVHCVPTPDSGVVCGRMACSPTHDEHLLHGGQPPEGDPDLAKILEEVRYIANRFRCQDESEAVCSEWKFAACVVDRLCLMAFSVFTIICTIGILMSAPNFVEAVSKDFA

molecular target: human α7 nAChR (Homo sapiens, UniProt P36544); assay: Calcium fluorescence assay on α7 nAChR expressed in Neuro2a cells, in the presence of PNU120596; assay type: cell-based; settings: PNU120596 10 μM present

Row | Structure (SMILES) | EC50
1 | CCOC(=O)[C@H](Cc1c[nH]c2cc([N+](=O)[O-])ccc12)[N+](C)(C)C | 50 µM
2 | COC(=O)[C@H](Cc1c[nH]c2cc(Br)ccc12)[N+](C)(C)C | 4 µM
3 | COC(=O)[C@H](Cc1c[nH]c2cc(Br)ccc12)N(C)C | no agonistic activity
4 | C[N+](C)(C)[C@@H](Cc1c[nH]c2cc([N+](=O)[O-])ccc12)C(N)=O | 23 µM
5 | CCOC(=O)[C@H](Cc1c[nH]c2cc([N+](=O)[O-])ccc12)N(C)C | no agonistic activity
6 | CCOC(=O)[C@H](Cc1c[nH]c2cc(N)ccc12)[N+](C)(C)C | 52 µM
7 | COC(=O)[C@H](Cc1c[nH]c2cc(C#N)ccc12)[N+](C)(C)C | 22 µM
8 | CNC(=O)[C@H](Cc1c[nH]c2cc([N+](=O)[O-])ccc12)[N+](C)(C)C | 128 µM
9 | COC(=O)[C@H](Cc1c[nH]c2cc(O)ccc12)[N+](C)(C)C | 599 µM
10 | COC(=O)[C@H](Cc1c[nH]c2cc(I)ccc12)[N+](C)(C)C | 4.72 µM
